Measurements taken from patent publication US20100041920A1, “NEW SALT FORMS OF AN AMINOINDAN DERIVATIVE” (priority 2008, published 2010).

Experiment: Accelerated stability studies of rasagiline salts (40° C. and 75% RH; PE and AL bags)
Type: physicochemical
Settings: for Purity (HPLC) 1st Month: 1 month; for Purity (HPLC) 2nd Month: 2 months
Experimental: Rasagiline salts were submitted to accelerated conditions (40° C. and 75% RH) in two types of bags: polyethylene (PE) and aluminium (AL) bags. The samples were characterized by HPLC, XRD, and visual inspection.

Question: For `C#CCN[C@@H]1CCc2ccccc21.C#CCN[C@@H]1CCc2ccccc21.O=C(O)C(O)C(O)C(=O)O` [Hemitartrate Form I, rasagiline L-hemitartrate], which “Purity (HPLC) 1st Month” value (aluminium (AL) bag) is on record?
Answer: Its value is 99.49%.

Question: What about the “Purity (HPLC) 2nd Month” value (aluminium (AL) bag) of the same molecule?
Answer: Its value is 99.55%.

Question: And the “Purity (HPLC) 1st Month” value (polyethylene (PE) bag)?
Answer: The value was 99.51%.

Question: And the “Purity (HPLC) 2nd Month” value (polyethylene (PE) bag)?
Answer: Its value is 99.47%.
